Test results: ChEMBL document CHEMBL1126113, “Para-substituted Phe3 deltorphin analogues: enhanced selectivity of halogenated derivatives for delta opioid receptor sites” (J Med Chem, 1992)

Sequences of proteins named here, by UniProt entry; tags and fusion partners are left off.
UniProt P33535, whole entry: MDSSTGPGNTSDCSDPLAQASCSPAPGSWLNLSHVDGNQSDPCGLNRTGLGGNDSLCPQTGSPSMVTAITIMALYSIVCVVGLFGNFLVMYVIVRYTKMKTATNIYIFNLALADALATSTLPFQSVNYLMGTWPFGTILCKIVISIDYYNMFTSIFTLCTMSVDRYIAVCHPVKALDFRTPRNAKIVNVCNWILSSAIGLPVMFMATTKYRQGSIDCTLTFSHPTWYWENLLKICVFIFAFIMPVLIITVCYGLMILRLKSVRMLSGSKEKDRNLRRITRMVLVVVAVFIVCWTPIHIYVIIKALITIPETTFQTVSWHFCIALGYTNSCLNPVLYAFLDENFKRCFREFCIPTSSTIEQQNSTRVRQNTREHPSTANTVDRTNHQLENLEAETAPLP

Target: Mu-type opioid receptor (Rattus norvegicus, UniProt P33535)
Test: Binding affinity against opioid receptor mu in rats by displacing [3H]-DAGO

**Q.** `CC(C)[C@H](NC(=O)[C@H](CCC(=O)O)NC(=O)[C@H](Cc1ccccc1)NC(=O)[C@H](C)NC(=O)[C@@H](N)Cc1ccc(O)cc1)C(=O)N[C@H](C(=O)NCC(=O)O)C(C)C` [DELTORPHINE II] was tested. Which pKi did it give?
**A.** The pKi was 6.20.

pKi: −log10 of the molar value.
